The record followed here is publication PMC11374718, “Unlocking opioid neuropeptide dynamics with genetically encoded biosensors” (Nature Neuroscience, 2024).

Sequences of proteins named here, by UniProt entry; tags and fusion partners are left off. A change or cut given only in a name is not applied to a line headed by its entry.
UniProt P35372, whole entry V175Q, looked up: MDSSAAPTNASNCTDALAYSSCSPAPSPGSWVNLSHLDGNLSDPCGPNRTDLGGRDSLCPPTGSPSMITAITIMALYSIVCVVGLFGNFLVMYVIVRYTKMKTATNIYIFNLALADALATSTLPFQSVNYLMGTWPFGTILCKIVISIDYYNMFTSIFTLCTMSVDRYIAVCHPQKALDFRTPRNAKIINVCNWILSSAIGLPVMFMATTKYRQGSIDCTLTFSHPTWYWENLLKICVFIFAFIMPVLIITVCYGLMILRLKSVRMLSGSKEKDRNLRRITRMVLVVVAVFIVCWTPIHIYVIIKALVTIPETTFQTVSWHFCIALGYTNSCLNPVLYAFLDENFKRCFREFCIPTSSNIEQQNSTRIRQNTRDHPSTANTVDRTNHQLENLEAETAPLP
UniProt P41145: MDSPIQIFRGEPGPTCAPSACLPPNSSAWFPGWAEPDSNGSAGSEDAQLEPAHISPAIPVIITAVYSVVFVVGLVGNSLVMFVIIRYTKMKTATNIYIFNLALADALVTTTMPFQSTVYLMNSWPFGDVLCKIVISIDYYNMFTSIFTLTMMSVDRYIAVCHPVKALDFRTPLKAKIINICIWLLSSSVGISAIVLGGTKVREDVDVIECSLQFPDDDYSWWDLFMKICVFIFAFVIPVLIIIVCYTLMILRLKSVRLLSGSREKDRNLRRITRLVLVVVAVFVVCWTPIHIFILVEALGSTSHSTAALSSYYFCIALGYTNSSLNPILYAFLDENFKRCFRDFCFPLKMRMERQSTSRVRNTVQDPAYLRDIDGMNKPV

Experiment [1] has as its target µLight (Homo sapiens, UniProt P35372, V175Q). In kind it is binding.
Experiment [2] addresses µLight (Homo sapiens, UniProt P35372, INS270[…]/V175Q). The class given is cell-based.
For the next experiment, the target named is T1, κLight (Homo sapiens, UniProt P41145, INS261[…]/L259S/S262L/V164K).
T1 construct: TlcnC (telencephalin) tag (C); PRC tag (C); ER2 (ER export motif FCYENEV) tag (C); expressed in transfected cells; dissociated hippocampal neurons (AAV9-hSyn); mouse brain (AAV9-hSyn)
The experiment can be described thus: [3H]diprenorphine displacement binding, κLight cell membranes. Conditions: read-out: κLight IC50.

In the case of `CC[C@H](C)[C@H](NC(=O)[C@H](CCCN=C(N)N)NC(=O)[C@H](CCCNC(=N)N)NC(=O)[C@H](CC(C)C)NC(=O)[C@H](Cc1ccccc1)NC(=O)CNC(=O)CNC(=O)[C@@H](N)Cc1ccc(O)cc1)C(=O)N[C@@H](CCCN=C(N)N)C(=O)N1CCC[C@H]1C(=O)N[C@@H](CCCCN)C(=O)N[C@@H](CC(C)C)C(=O)N[C@@H](CCCCN)C(=O)N[C@@H](Cc1c[nH]c2ccccc12)C(=O)N[C@@H](CC(=O)O)C(=O)N[C@@H](CC(N)=O)C(=O)N[C@@H](CCC(N)=O)C(=O)O` [DynA17, dynorphin A (1-17)], the “μLight % bound at 10 μM” value at µLight [1] came to 60±2%.

In the case of `CC[C@H](C)[C@H](NC(=O)[C@H](CCCNC(=N)N)NC(=O)[C@H](CCCNC(=N)N)NC(=O)[C@H](CC(C)C)NC(=O)[C@H](Cc1ccccc1)NC(=O)CNC(=O)CNC(=O)[C@@H](N)Cc1ccc(O)cc1)C(=O)N[C@@H](CCCNC(=N)N)C(=O)N1CCC[C@H]1C(=O)N[C@@H](CCCCN)C(=O)N[C@@H](CC(C)C)C(=O)N[C@@H](CCCCN)C(=O)O` [DynA13, dynorphin A1-13], at µLight [2] (read-out: μLight EC50), the EC50 (commonly the concentration at which the effect is half-maximal) came to 3740 nM.

On to `CC(C)C[C@H](NC(=O)[C@H](Cc1ccccc1)NC(=O)CNC(=O)CNC(=O)[C@@H](N)Cc1ccc(O)cc1)C(=O)N[C@@H](CCCNC(=N)N)C(=O)N[C@@H](CCCNC(=N)N)C(=O)N[C@@H](CCC(N)=O)C(=O)N[C@@H](Cc1ccccc1)C(=O)N[C@@H](CCCCN)C(=O)N[C@H](C(=O)N[C@H](C(=O)N[C@H](C(=O)O)[C@@H](C)O)C(C)C)C(C)C` [DynB13], for which, on µLight [1], the “μLight % bound at 10 μM” value is 61±2%. For the same compound, the IC50 – broadly, the point on the concentration scale where inhibition reaches its midpoint – at µLight [1] (read-out: μLight IC50) turned out to be 10 ± 2 nM; at κLight it was 6 ± 2 nM.

For `CSCC[C@H](NC(=O)[C@H](Cc1ccccc1)NC(=O)CNC(=O)CNC(=O)[C@@H](N)Cc1ccc(O)cc1)C(=O)O` [ME, met-enkephalin], the “μLight % bound at 10 μM” value at µLight [1] was 77±3%. In addition, on µLight [2], the “μLight ΔF/F max (%)” value is given as 40.0±1.55%.
